Results from PMC6366850 (Chembiochem : a European journal of chemical biology, 2018).

Target: T1, Human Neutrophil Elastase (Homo sapiens, UniProt P08246)
T1 sequence (P08246 30-267): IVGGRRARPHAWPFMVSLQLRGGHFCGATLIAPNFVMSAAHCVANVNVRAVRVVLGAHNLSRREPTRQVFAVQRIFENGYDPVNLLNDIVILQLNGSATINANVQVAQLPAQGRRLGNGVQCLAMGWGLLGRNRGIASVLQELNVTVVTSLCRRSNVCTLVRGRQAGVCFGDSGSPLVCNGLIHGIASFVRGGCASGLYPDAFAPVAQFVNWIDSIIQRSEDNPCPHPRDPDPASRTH
Test: Human neutrophil elastase inhibition assay
Format: biochemical

IC50: 60 ± 10 nM
SMILES: CC(C)(C)C(=O)Oc1ccc(S(=O)(=O)Nc2ccccc2C(=O)NCC(=O)O)cc1 [Sivelestat, reference compound]
